GALK inhibitor = galactokinase (human) inhibition. 270,000 tested, 0.007% active. Purified GALK, Kinase-Glo residual ATP luminescence. P51570. Potency, µM (titrated, usually from 57.5 µM), hits mostly inhibitors
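GALK at 5 nM final was combined with compound, 35 uM ATP and 100 uM galactose in HEPES pH8.0 with MgCl2 and DTT. The reaction ran one hour at room temperature before luminescent ATP detection.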
Nrf2 block = blocks Nrf2 signaling. A549 ARE-Fluc reporter, luciferase luminescence, 18-24 h. Potency, µM (doses to about 46 µM), actives largely listed as inhibitors. 360,000 tested, 2.1% active. AID 504444; note: nearly all actives have a fitted effect of over 60% in size
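Two sequential reads on A549 ARE_Fluc cells exposed to compound for 18-24 h: a CellTiter-Fluor fluorescence read for viability, then a luciferase luminescence read for Nrf2/ARE activity.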
Nrf2 activator = activators of Nrf2 (ARE) signaling. AID 624171. AREc32 ARE-luciferase reporter (MCF7-derived line), luminescence, 24 h. 410,000 tested, 0.31% active. Potency, µM (series often up to 46.1 µM), actives largely listed as activators; note: nearly all actives have a fitted effect of over 65% in size
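AREc32 cells carrying an ARE-driven firefly luciferase reporter were seeded at 1000 cells/well in OPTI-MEM with 5% FBS, then exposed to compound for 24 hr at 37 deg C. Luminescence was read with Steady-Glo after 30 min at RT.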
PI4K2A block = PI4K2A (human) kinase inhibition; purified PI4K2A, ADP-Glo luminescence, 1 h; active compounds read low; 420,000 tested, 0.13% active; activity change, negative = inhibition, % at 76.9 µM; Q9BTU6; in the data active = activity change below about -50%; inconclusive = mostly about -30% to -49%
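ADP-Glo luminescence measured ADP generated by PI4K2A enzyme (4 ug/mL before mixing) with 1.2 mM PI substrate (pre-mix) and 300 microM ATP (pre-mix). Tris pH7.5 buffer with MgCl2, Triton X-100; 1 h reaction at ambient temperature.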
A549 tox = kills or reduces viability of A549 cells in Nrf2 counter-screen; Potency, µM (series often up to 46 µM), actives largely listed as inhibitors; 390,000 tested, 0.16% active; AID 504648; A549 ARE-Fluc cells, CellTiter-Fluor viability, 18-24 h
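Cytotoxicity counterscreen: CellTiter-Fluor fluorescence was measured in A549 ARE_Fluc cells after 18-24 h of compound exposure in a concentration series. The subsequent BugLite luminescent read reports ARE-luciferase activity.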
miR-21 reporter = raises the signal of a miR-21 reporter; Potency, µM (doses to about 38.3 µM); HeLa miR-21 FLuc reporter, luciferase, 48 h; AID 2288; 340,000 tested, under 10 active; active = well fitted rising curve with a large enough effect; inconclusive = small, poorly fitted or top-dose-only effect; inactive = no such curve, though single readings can be large or run the other way;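 further: miR-21 action dims this reporter so a rising signal means less miR-21 action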
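HeLa miR-21-FLuc reporter line, endogenous miR-21; 2000 cells/well in DMEM/10% FBS; compound titration up to ~40uM final, 48 h, 37 degree Celsius; luciferase detection reagent, 15 min lysis, CCD luminescence.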
Hits are given with their value; - = inactive; ? = inconclusive; . = not tested or not shown. In the library only some 2.2% were active in any assay of this set; here they are far more common. Unless noted, calls come from the whole dose curve; as a rule, active = well fitted curve in the direction sought with a large enough effect; inconclusive = small, poorly fitted or top-dose-only effect, or another doubt; inactive = no such curve, though single readings can be large; an effect the other way counts as inactive or inconclusive.

SMILES	GALK inhibitor	Nrf2 block	Nrf2 activator	PI4K2A block	A549 tox	miR-21 reporter
Cc1cccc(C2CC(=O)Nc3cc4c(cc32)OCO4)c1 (stereo unspecified)	.	?	-	-	-	-
CC(C)Oc1cccc(C2CC(=O)Nc3cc4c(cc32)OCO4)c1 (stereo unspecified)	.	16.4µM	-	-	-	?
O=S1(=O)N=C(Sc2ccc3c(c2)OCCO3)c2ccccc21	.	-	.	.	-	.
C=CCNC(=O)N1CCN(Cc2nc3ccccc3c(=O)[nH]2)CC1	.	.	.	-	.	.
CN1CCCC1CCNc1ncnc2ccc(-c3ccc4c(c3)OCO4)cc12 (stereo unspecified)	.	-	.	.	-	.
CC(=O)c1cc(-c2ccccc2-c2ccccc2)c(=O)n2c1CCC2	.	.	.	-	.	.
C[C@H]1O[C@H](O[C@H]2[C@H](O)[C@@H](O)[C@@H](O[C@H]3[C@H](O)[C@@H](O)[C@H](O)O[C@@H]3CO)O[C@@H]2CO)[C@H](O)[C@@H](O)[C@@H]1N[C@H]1C=C(CO)[C@@H](O)[C@H](O)[C@H]1O	.	.	.	-	.	.
Oc1ccc2[nH]cc(CCc3ccccc3)c2c1-c1ccccc1	.	.	.	-	.	.
Cc1cc(C)c[n+](C(C)C(=O)c2ccc(-c3ccccc3)cc2)c1 (stereo unspecified)	-	14.6µM	-	-	-	-
Cc1ccc[n+](C(C)C(=O)c2ccc(Cl)cc2)c1 (stereo unspecified)	-	-	-	-	-	-
CCC[C@H]1[C@@H](NC(=O)C2CCCCC2)CC[C@@]23CCCN2C(=O)CCC[C@@H]13	.	.	.	-	.	.
C=CCN1C(=O)[C@@H](CC(=O)NCc2cccc(C(F)(F)F)c2)[C@]2(C(=O)OC)CCCCC=C12	.	.	.	-	.	.
COc1ccc(Cn2c(SCc3cc(C)ccc3C)nc3cc(OC)c(OC)cc3c2=N)cc1	-	23.1µM	-	-	18.4µM	-
Cc1ccc(N(C)S(=O)(=O)c2ccc3c(c2)CCC(=O)N3)cc1C	.	?	.	.	-	.
Cc1ccc(S(=O)(=O)N(C)c2ccc(C(=O)Nc3ccc(C)cn3)cc2)cc1	.	11.6µM	-	-	-	.
COc1ccc(NC(=O)COc2ccc(N(C)S(=O)(=O)c3ccc(C)cc3)cc2)cc1	-	?	-	-	-	-
Cc1ccc(S(=O)(=O)N(C)c2ccc(C(=O)Nc3ccccn3)cc2)cc1	.	-	-	-	-	.
COc1ccc(NC(=O)COc2ccc(N(C)S(=O)(=O)c3ccc(Cl)cc3)cc2)cc1	.	13µM	-	-	-	.
COc1ccc(CCNC(=O)c2ccc(N(C)S(=O)(=O)c3ccc(C)cc3)cc2)cc1	-	?	-	-	-	-
COc1ccc(CCNC(=O)c2ccc(Cl)c(S(=O)(=O)N(C)c3ccccc3)c2)cc1	-	18.4µM	-	-	-	-
Cc1ccc(S(=O)(=O)N(C)c2ccc(OCC(=O)Nc3nc4ccccc4s3)cc2)cc1	-	20.6µM	-	-	-	-
O=C(c1ccc(Cl)c(Cl)c1)N1CCN(c2ccnc3cc(Cl)ccc23)CC1	.	.	.	-	.	.
COc1ccc(/C=N/NC(=O)c2ccc(N(C)S(=O)(=O)c3ccccc3)cc2)cc1	-	25.9µM	-	-	-	-
Cc1ccc(/C=C/S(=O)(=O)Nc2ccc(C)cc2)cc1	-	-	-	-	-	-
COc1ccc(C(=O)Nc2ccc(S(=O)(=O)N(C)c3ccccc3)cc2)cc1	.	20.6µM	-	-	-	.
SMILES	GALK inhibitor	Nrf2 block	Nrf2 activator	PI4K2A block	A549 tox	miR-21 reporter
Cc1ccc(NC(=O)c2ccc(NS(=O)(=O)/C=C/c3ccccc3)cc2)nc1	-	20.6µM	-	-	-	-
COc1ccc(/C=N/NC(=O)c2ccc(N(C)S(=O)(=O)c3ccccc3)cc2)c(OC)c1	-	-	-	-	-	-
CC(=O)Nc1ccc(NC(=O)c2ccc(S(=O)(=O)N(C)c3ccccc3)cc2)cc1	.	-	-	-	-	.
O=C1CCC[C@H]2C[C@H](NCc3cccnc3)CC[C@]23CCCN13	.	.	.	-	.	.
CCCCNC(=O)CC1N=C2c3ccccc3N=C(SCC(=O)Nc3ccccc3OC)N2C1=O (stereo unspecified)	-	18.4µM	-	-	-	-
COc1ccccc1NC(=O)CSC1=Nc2ccccc2C2=NC(CC(=O)NCc3ccccc3)C(=O)N12 (stereo unspecified)	.	.	-	-	-	-
Cc1ccc(S(=O)(=O)Nc2ccc3c(c2)CCC3)cc1	-	11.6µM	-	-	?	-
CC1CN(C(=O)c2ccc(S(=O)(=O)Nc3cccc(C(F)(F)F)c3)cc2)CC(C)O1 (stereo unspecified)	.	13µM	-	-	-	.
CC(=O)N1c2ccc(S(=O)(=O)Nc3ccc(C)c(C)c3)cc2CC1C (stereo unspecified)	.	10.3µM	.	.	?	.
CC(=O)N1c2ccc(S(=O)(=O)Nc3ccc(C)c(Cl)c3)cc2CC1C (stereo unspecified)	.	?	-	-	-	-
CCc1cccc(NS(=O)(=O)c2ccc3c(c2)CC(C)N3C(=O)C2CC2)c1 (stereo unspecified)	.	11.6µM	-	-	-	-
O=C(c1ccc(S(=O)(=O)Nc2cccc(C(F)(F)F)c2)cc1)N1CCOCC1	-	?	-	-	-	-
CC1Cc2cc(S(=O)(=O)NCc3ccccc3)ccc2N1C(=O)C1CC1 (stereo unspecified)	-	?	-	-	-	-
COc1ccc(OC)c(S(=O)(=O)N2CCCC(C(=O)Nc3c(C)n(C)n(-c4ccccc4)c3=O)C2)c1 (stereo unspecified)	.	.	.	-	.	.
CCOc1ccc(-c2nc(CSCC(=O)NC3CCC3)c(C)o2)cc1	.	.	.	-	.	.
C(=N/N1CCN(c2ccccc2)CC1)/c1ccco1	.	.	.	-	.	.
COC(=O)[C@]12C[C@H](CC(=O)NCc3cccc(C(F)(F)F)c3)C(=O)N(Cc3ccc(Cl)cc3Cl)C1=C[C@H](C1CCCC1)O[C@@H]2C	.	.	.	-	.	.
CSc1cccc(NS(=O)(=O)c2ccc3c(c2)CCN3C(C)=O)c1	-	?	-	-	-	-
CC(=O)N1CCc2cc(S(=O)(=O)Nc3cccc(C(F)(F)F)c3)ccc21	-	9.2µM	-	-	-	-
COc1ccc(S(=O)(=O)Nc2ccc3c(c2)N(C(C)=O)CCC3)cc1	.	11.6µM	-	-	-	.
COc1cccc(NS(=O)(=O)c2ccc3c(c2)CCN3C(C)=O)c1	-	10.3µM	-	-	-	-
CC(=O)N1CCc2cc(S(=O)(=O)Nc3ccc(C)c(C)c3)ccc21	.	14.6µM	.	.	-	.
C=CCOC/C=C/C#CCN(Cc1ccc(OC)cc1OC)C(=O)Nc1ccccc1	.	.	.	-	.	.
O=C(Nc1ccc(F)cc1)Nc1c(-c2ccc(F)cc2)nc2ncccn12	.	.	.	-	.	.

High-throughput results from PubChem.
